# In patent publication US10570116B2, “1,4-dicarbonyl-piperidyl derivatives” (Merck Patent GmbH, priority 2015, dated 2020):
# Test system: Tankyrases
# Test: Measurement of cellular inhibition of Tankyrase (Axin2 level, Luminex based assay, DLD1 cells)
# Format: cell-based
# Settings: increase of Axin2 level, 24 hours, read-out: EC50 [M] TNKS cellular assay
smiles,measurement,value
"Cn1cc(C(=O)C2CCN(C(=O)COCc3nc4c(F)cc(F)cc4c(=O)[nH]3)CC2)cn1 [Compound C27, 6,8-Difluoro-2-{2-[4-(1-methyl-1H-pyrazole-4-carbonyl)-piperidin-1-yl]-2-oxo-ethoxymethyl}-3H-quinazolin-4-one]",EC50,2.4e-07 M
